One experiment addresses Histamine H1 receptor (Homo sapiens, UniProt P35367).
Experiment [1] has as its target T1, Alpha-1A adrenergic receptor (Homo sapiens, UniProt P35348).
T1 sequence (P35348 whole entry): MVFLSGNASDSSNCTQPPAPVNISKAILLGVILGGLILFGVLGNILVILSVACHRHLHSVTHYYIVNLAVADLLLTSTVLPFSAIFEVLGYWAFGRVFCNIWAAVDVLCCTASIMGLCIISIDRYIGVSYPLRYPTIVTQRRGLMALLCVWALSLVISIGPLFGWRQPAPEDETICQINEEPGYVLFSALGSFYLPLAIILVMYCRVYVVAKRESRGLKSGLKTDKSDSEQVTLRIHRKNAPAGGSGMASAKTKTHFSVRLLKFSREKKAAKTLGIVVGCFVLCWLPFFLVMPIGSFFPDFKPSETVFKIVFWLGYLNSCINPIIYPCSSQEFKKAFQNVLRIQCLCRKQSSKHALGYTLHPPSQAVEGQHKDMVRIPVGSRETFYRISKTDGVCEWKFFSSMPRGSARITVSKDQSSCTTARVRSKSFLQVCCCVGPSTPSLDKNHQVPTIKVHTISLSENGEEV

Chains of the proteins cited; added tags and fusions are not shown.
UniProt P35367, whole entry: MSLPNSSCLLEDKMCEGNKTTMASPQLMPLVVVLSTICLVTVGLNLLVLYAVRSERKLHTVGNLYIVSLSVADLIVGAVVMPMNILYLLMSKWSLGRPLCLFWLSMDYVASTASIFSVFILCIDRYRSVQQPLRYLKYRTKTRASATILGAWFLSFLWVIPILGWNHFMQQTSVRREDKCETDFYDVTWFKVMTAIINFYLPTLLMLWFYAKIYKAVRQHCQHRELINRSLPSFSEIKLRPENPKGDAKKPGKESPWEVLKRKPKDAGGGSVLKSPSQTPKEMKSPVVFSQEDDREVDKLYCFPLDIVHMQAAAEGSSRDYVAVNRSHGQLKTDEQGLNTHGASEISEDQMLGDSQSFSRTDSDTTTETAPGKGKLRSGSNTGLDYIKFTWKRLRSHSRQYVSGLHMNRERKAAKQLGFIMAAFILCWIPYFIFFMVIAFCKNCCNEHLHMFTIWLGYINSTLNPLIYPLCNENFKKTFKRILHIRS
UniProt P28223, whole entry: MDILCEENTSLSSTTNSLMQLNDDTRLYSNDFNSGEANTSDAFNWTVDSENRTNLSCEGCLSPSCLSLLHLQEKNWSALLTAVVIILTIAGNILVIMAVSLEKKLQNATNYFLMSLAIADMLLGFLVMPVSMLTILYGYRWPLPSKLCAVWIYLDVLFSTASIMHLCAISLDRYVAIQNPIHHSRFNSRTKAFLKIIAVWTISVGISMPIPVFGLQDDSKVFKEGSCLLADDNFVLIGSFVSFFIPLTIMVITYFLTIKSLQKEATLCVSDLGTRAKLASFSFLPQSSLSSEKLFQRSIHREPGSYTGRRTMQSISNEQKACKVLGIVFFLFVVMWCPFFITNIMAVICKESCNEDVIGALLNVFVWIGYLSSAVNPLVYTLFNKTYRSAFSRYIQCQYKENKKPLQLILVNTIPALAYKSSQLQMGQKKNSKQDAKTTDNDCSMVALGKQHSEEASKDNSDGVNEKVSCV

The target of experiment [2] is 5-hydroxytryptamine receptor 2A (Homo sapiens, UniProt P28223).

SMILES strings stand for the structures.

For the compound `CN(C)CCOC1=Cc2ccccc2Sc2ccc(Cl)cc21` [2-Chloro-11-(2-(dimethylamino)ethoxy)dibenzo(b,f)thiepin], the Ki at Histamine H1 receptor is 3.3 nM; in experiment [1] it was 7.3 nM.
For `CN1CCN(C2=c3ccccc3=Nc3ccc(Cl)cc3N2)CC1` [6-chloro-10-(4-methylpiperazin-1-yl)-2,9-diazatricyclo[9.4.0.0^{3,8}]pentadeca-1,3(8),4,6,10,12,14-heptaene], the affinity on Histamine H1 receptor, expressed as Ki, was 3.1 nM.
As for `CC1CCN(CCCC(=O)c2ccc(F)cc2)CC1` [CAS_3575-80-2], the Ki in experiment [2] is 102 nM.
